## Experimental properties from OPERA 2.9

Values as listed in the OPERA 2.9 repository of K. Mansouri.

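OPERA's authors assembled the values from existing databases and did not measure them anew. One number stands for a compound and property, with no spread given. How each value was measured is not recorded, so precision varies. Where a salt, mixture or single isomer is drawn, the source does not say that exactly this form was tested. Unmarked limits or estimates from the upstream databases cannot be ruled out.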

Melting points are in °C. Boiling points are in °C, nominally at 760 mmHg. The octanol-water partition coefficient is given as log10; larger values mean a more lipophilic compound. Water solubility is log10 of mol/L, nominally at 25 °C; higher is more soluble. Vapor pressures (log10 mmHg) refer to near room temperature, 15 to 30 °C; higher is more volatile. The Henry's law constant is on a log10 scale in atm·m3/mol (set defined at 25 °C); higher favours air over water. fu is the fraction unbound in human plasma, from 0 to 1. Clint is human hepatic intrinsic clearance in µL/min per million cells; 0 means that no clearance was seen. "–" marks a cell with nothing listed here.

- C=CC(=O)OCCCCCCCCCCCCCCCC [Hexadecyl acrylate]: log S -7.171 (log10 mol/L); log VP -5.37 (log10 mmHg)
- CCCCCCC(C)OC(=O)CCCCC(=O)OC(C)CCCCCC (stereo unspecified) [Hexanedioic acid, bis(1-methylheptyl) ester]: MP -32.3 °C; log S -7.946 (log10 mol/L); log VP -5.347 (log10 mmHg)
- COc1ccc(-c2coc3cc(O)ccc3c2=O)cc1 [Formononetin]: logP (octanol/water) 1.7; log S -4.128 (log10 mol/L)
- CCCCc1ccc(-c2ccc(-c3ccc(CC)cc3)cc2F)cc1: MP 69.2 °C; bp 440 °C; log S -7.92 (log10 mol/L); log VP -7.573 (log10 mmHg)
- CCCCNc1ccc(NCCCC)c2c1C(=O)c1ccccc1C2=O: log S -7.932 (log10 mol/L); log VP -8.663 (log10 mmHg)
- O=C1CCCCCCCCCCOCCCCO1 [12-Oxahexadecanolide]: MP -27.1 °C; log S -4.018 (log10 mol/L); log VP -3.476 (log10 mmHg)
- N=C(N)NC(=O)Cc1c(Cl)cccc1Cl [Guanfacine]: logP (octanol/water) 1.7; log S -2.82 (log10 mol/L)
- CCCCCCCCC(O)CO (stereo unspecified) [1,2-Decanediol]: logP (octanol/water) 1.99; log S -2.479 (log10 mol/L); log VP -4.307 (log10 mmHg)
- CCCCCCCCSc1nc(Nc2cc(C(C)(C)C)c(O)c(C(C)(C)C)c2)nc(SCCCCCCCC)n1: MP 95.39 °C; log VP -10 (log10 mmHg)
- CO[Si](OC)(OC)c1ccccc1 [Trimethoxyphenylsilane]: logP (octanol/water) -0.021; log VP -0.865 (log10 mmHg)
- c1ccc2c(c1)CC1COCOC21 (stereo unspecified) [4,4a,5,9b-Tetrahydroindeno(1,2-d)-1,3-dioxin]: MP 36.4 °C; logP (octanol/water) 1.76; log S -1.656 (log10 mol/L); log VP -2.725 (log10 mmHg)
- CCC(C)OC(=O)N1CCCCC1CCO (stereo unspecified) [Icaridin]: logP (octanol/water) 2.11; log VP -3.354 (log10 mmHg); intrinsic clearance 12.56 µL/min/10^6 cells
- CCN(CC)c1ccc2cc(-c3nc(=O)c4ccccc4[nH]3)c(=O)oc2c1: MP 203.2 °C; logP (octanol/water) 4.9; log S -7.479 (log10 mol/L); log VP -9.462 (log10 mmHg)
- CCC(=O)CC(C)(C)c1ccccc1 [5-Methyl-5-phenylhexan-3-one]: bp 258.9 °C; logP (octanol/water) 3.5; log S -3.302 (log10 mol/L); log VP -1.828 (log10 mmHg)
- CCCCCCC1(C)CCC(=O)O1 (stereo unspecified) [Dihydrojasmone lactone]: MP -14.2 °C; log S -2.643 (log10 mol/L)
- CCCCCCC(=O)OCCOCCOCCOCCOC(=O)CCCCCC [Tetraethylene glycol diheptanoate]: MP -48 °C; logP (octanol/water) 2.86
- CNCCCC12CCC(c3ccccc31)c1ccccc12 [Maprotiline]: logP (octanol/water) 5.1; plasma fu 0.1165; intrinsic clearance 0.723 µL/min/10^6 cells
- CC(=O)OC1CCC2CCCCC2C1 (stereo unspecified) [Decahydro-2-naphthyl acetate]: MP -76.6 °C; logP (octanol/water) 4.45; log S -3.56 (log10 mol/L); log VP -0.682 (log10 mmHg)
- Clc1cc(Oc2c(Cl)cc(Cl)c(Cl)c2Cl)c(Cl)c(Cl)c1Cl: MP 205 °C; log S -10.1 (log10 mol/L); log VP -7.075 (log10 mmHg)
- CCCCCCCCCCCC(=O)N(CCO)CCO [N,N-Bis(2-hydroxyethyl)dodecanamide]: MP 38.7 °C; log VP -4.658 (log10 mmHg)
- O=[N+]([O-])c1cc(Cl)c(OC(F)(F)C(F)C(F)(F)F)cc1Cl (stereo unspecified): MP -72 °C; logP (octanol/water) 4.3; log S -4.806 (log10 mol/L)
- CCCCCCCC/C=C\CCCCCCCC(=O)OCCC(C)C [3-Methylbutyl (9Z)-9-octadecenoate]: MP -9 °C; log S -8.07 (log10 mol/L)
- CCCCOCCOCCOCc1cc2c(cc1CCC)OCO2 [Piperonyl butoxide]: MP -2.5 °C; log VP -6.912 (log10 mmHg); log H -10.64 (log10 atm·m3/mol); intrinsic clearance 76.01 µL/min/10^6 cells
- COC1=CCC2=C(CC[C@@H]3[C@@H]2CC[C@]2(C)[C@@H](O)CC[C@@H]32)C1 [1,4-Dihydroestradiol 3-methyl ether]: logP (octanol/water) 5.62; log S -4.761 (log10 mol/L)
- CCCCCCCCC(CCCCCC)C(=O)OCC(COC(=O)C(CCCCCC)CCCCCCCC)(COC(=O)C(CCCCCC)CCCCCCCC)COC(=O)C(CCCCCC)CCCCCCCC (stereo unspecified): MP -57 °C; log S -6.338 (log10 mol/L); log VP -13.76 (log10 mmHg)
- Br.COc1ccc(C)cc1C(CCN(C(C)C)C(C)C)c1ccccc1 (stereo unspecified): MP 181.6 °C; logP (octanol/water) 0.103; log S -1.946 (log10 mol/L); log VP -9.949 (log10 mmHg)
- Cc1cc(C#N)c(Nc2ccccc2[N+](=O)[O-])s1 [5-Methyl-2-((2-nitrophenyl)amino)-3-thiophenecarbonitrile]: MP 110 °C; logP (octanol/water) 3.2; log S -5.263 (log10 mol/L); log VP -6.211 (log10 mmHg)
- CCN(CC)c1ccc2cc(-c3nc4cc(S(N)(=O)=O)ccc4o3)c(=O)oc2c1: logP (octanol/water) 2.246; log S -7.831 (log10 mol/L)
- CCCCC(CC)CN(CCO)CC(CC)CCCC (stereo unspecified) [2-[Bis(2-ethylhexyl)amino]ethan-1-ol]: log S -4.942 (log10 mol/L); log VP -3.523 (log10 mmHg)
- CNC(=O)/C(=N/OC)c1ccccc1COc1cc(C)ccc1C [Dimoxystrobin]: log S -4.879 (log10 mol/L); log VP -10.35 (log10 mmHg)
- Cc1cc(Sc2cc(C)cc(C(C)(C)C)c2O)c(O)c(C(C)(C)C)c1 [6,6'-Di-tert-butyl-2,2'-thiodi-p-cresol]: log S -7.651 (log10 mol/L); log VP -5.34 (log10 mmHg)
- O=[N+]([O-])C1(Br)COCOC1 [5-Bromo-5-nitro-1,3-dioxane]: logP (octanol/water) 1.6; log S -1.648 (log10 mol/L); log VP -1.799 (log10 mmHg)

Excerpt, the final 5 entries:

| structure (SMILES) | name | MP (°C) | bp (°C) | logP (octanol/water) | log S (log10 mol/L) | log VP (log10 mmHg) | log H (log10 atm·m3/mol) | plasma fu | intrinsic clearance (µL/min/10^6 cells) |
|---|---|---|---|---|---|---|---|---|---|
| CCN(CC)c1ccc2cc(-c3nc4cc(S(N)(=O)=O)ccc4o3)c(=O)oc2c1 | – | – | – | 2.246 | -7.831 | – | – | – | – |
| CCCCC(CC)CN(CCO)CC(CC)CCCC (stereo unspecified) | 2-[Bis(2-ethylhexyl)amino]ethan-1-ol | – | – | – | -4.942 | -3.523 | – | – | – |
| CNC(=O)/C(=N/OC)c1ccccc1COc1cc(C)ccc1C | Dimoxystrobin | – | – | – | -4.879 | -10.35 | – | – | – |
| Cc1cc(Sc2cc(C)cc(C(C)(C)C)c2O)c(O)c(C(C)(C)C)c1 | 6,6'-Di-tert-butyl-2,2'-thiodi-p-cresol | – | – | – | -7.651 | -5.34 | – | – | – |
| O=[N+]([O-])C1(Br)COCOC1 | 5-Bromo-5-nitro-1,3-dioxane | – | – | 1.6 | -1.648 | -1.799 | – | – | – |